The chains behind the UniProt entries cited, without tags or fusion partners.
UniProt P51681, whole entry: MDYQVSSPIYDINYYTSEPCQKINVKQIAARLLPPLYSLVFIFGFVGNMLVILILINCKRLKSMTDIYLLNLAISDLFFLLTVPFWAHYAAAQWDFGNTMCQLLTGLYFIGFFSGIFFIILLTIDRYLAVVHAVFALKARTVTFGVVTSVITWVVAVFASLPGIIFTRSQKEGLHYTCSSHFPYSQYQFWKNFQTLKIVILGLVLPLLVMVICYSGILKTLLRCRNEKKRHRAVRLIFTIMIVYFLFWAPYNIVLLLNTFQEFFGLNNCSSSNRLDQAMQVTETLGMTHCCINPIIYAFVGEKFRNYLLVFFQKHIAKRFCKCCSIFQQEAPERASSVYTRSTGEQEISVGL
UniProt P61073, whole entry: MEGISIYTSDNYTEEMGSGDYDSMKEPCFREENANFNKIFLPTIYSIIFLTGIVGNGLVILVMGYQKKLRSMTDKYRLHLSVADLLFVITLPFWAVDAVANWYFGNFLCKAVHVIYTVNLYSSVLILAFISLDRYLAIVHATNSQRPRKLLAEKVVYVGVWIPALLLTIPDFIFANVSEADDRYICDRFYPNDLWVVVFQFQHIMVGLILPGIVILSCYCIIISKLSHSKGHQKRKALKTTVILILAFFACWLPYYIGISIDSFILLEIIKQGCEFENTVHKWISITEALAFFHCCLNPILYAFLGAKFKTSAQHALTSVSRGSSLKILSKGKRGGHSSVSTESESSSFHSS

In PMC3003753 (Journal of medicinal chemistry, 2010):

Legend:
[1] = molecular target: CCR5 (Homo sapiens, UniProt P51681); assay: cAMP assay, U87CD4CCR5 cells stimulated with CCL5; format: cell-based
[2] = molecular target: CXCR4 (Homo sapiens, UniProt P61073); assay: cAMP assay; format: cell-based

How did the “Effect on blocking CCL5 stimulating CCR5 (cAMP)” value [1] turn out when `Cl.Cl.Cl.Cl.Cl.Cl.Cl.Cl.c1cc(CN2CCCNCCNCCCNCC2)ccc1CN1CCCNCCNCCCNCC1` [Compound 1, AMD3100, reference compound] was run?
The value was “no significant effect”.

And the “Concentration at which CXCL12 function is significantly blocked / counteracted” value [2]?
The value was roughly 1000 nM.
